Results as given in ChEMBL document CHEMBL4725416, “Structure-Based Discovery of Novel Ligands for the Orexin 2 Receptor” (J Med Chem, 2020).

Sequences of proteins named here, by UniProt entry; tags and fusion partners are left off.
UniProt O43613, whole entry: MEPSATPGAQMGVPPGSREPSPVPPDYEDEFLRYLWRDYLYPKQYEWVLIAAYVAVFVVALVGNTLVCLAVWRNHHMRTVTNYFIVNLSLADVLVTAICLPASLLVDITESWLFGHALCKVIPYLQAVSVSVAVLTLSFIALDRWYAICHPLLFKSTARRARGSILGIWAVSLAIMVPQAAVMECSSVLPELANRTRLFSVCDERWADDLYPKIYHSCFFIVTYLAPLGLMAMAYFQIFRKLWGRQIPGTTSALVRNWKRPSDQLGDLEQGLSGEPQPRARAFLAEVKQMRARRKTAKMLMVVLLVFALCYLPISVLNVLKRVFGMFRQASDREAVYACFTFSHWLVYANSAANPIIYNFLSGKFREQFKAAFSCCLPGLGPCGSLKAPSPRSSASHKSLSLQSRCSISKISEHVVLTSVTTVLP

target: Orexin/Hypocretin receptor type 1 (Homo sapiens, UniProt O43613); assay: Displacement of [3H]-[…] from human orexin 1 receptor expressed in CHO cells incubated for 2 hrs by whole cell radioligand binding assay; format: cell-based

Row | Structure (SMILES) | pKi
1 | Cc1nc(-c2ncccn2)sc1C(=O)OCCn1c(C)nc2ccccc21 | inactive
2 | COc1cccc(CN2CC3(CCN(Cc4nccs4)CC3)CC2=O)c1 | inactive
3 | CN(C)S(=O)(=O)c1cccc(C(=O)N(CCc2ccccc2)c2nc3ccccc3s2)c1 | inactive
4 | O=C1c2ccccc2C(=O)N1CCc1nc(-c2cnccn2)no1 | inactive

More lines, now with the values ahead:

Row | pKi | Structure (SMILES)
5 | inactive | CN(Cc1[nH]cc[n+]1Cc1ccccc1)C(=O)c1cccc2cc[nH][n+]12
6 | inactive | O=C(Cc1ccc(Cl)cc1)N1CCC(c2noc(-c3ccccn3)n2)CC1
7 | inactive | CN(Cc1[nH]cc[n+]1C)C(=O)CCCc1c[nH]c2ccccc12
8 | inactive | CCC(=O)N1CCCN([C@@H](C)C(=O)Nc2ccccc2C(C)=O)CC1
9 | inactive | Cc1ccc(C(=O)N2CCN(Cc3nnc(-c4ccco4)o3)CC2)cc1F

The source made the active and inactive calls. How the calls were made is not given here.
